Measured values published in ChEMBL document CHEMBL4033688, “Design, synthesis and anti-tumor activity study of novel histone deacetylase inhibitors containing isatin-based caps and o-phenylenediamine-based zinc binding groups” (Bioorg Med Chem, 2017).

Sequences of proteins named here, by UniProt entry; tags and fusion partners are left off. A change or cut given only in a name is not applied to a line headed by its entry.
UniProt Q13547, whole entry: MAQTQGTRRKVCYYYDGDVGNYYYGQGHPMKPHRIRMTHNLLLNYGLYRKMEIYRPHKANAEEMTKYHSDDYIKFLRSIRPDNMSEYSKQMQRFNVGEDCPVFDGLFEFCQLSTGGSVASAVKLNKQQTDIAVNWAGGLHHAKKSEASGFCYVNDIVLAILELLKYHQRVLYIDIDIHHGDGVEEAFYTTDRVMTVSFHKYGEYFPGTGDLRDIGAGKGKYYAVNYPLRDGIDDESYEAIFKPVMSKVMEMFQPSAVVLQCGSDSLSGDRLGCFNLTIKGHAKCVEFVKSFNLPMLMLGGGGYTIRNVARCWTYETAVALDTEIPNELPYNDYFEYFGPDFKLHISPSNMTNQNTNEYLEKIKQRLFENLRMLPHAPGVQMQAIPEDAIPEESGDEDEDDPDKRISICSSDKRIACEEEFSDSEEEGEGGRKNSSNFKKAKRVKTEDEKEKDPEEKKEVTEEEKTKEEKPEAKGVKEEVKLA
UniProt O15379: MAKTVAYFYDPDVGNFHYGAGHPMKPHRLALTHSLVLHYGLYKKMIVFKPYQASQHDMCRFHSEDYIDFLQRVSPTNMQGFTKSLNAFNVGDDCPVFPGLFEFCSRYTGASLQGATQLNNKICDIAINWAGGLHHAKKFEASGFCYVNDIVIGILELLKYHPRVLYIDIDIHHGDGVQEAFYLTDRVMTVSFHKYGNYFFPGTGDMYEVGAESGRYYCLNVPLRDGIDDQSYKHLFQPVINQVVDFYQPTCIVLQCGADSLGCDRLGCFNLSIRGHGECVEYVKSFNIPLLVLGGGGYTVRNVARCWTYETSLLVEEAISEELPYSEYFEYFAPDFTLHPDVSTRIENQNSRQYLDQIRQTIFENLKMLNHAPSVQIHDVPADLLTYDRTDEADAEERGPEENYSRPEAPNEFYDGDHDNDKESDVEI
UniProt Q92769, whole entry: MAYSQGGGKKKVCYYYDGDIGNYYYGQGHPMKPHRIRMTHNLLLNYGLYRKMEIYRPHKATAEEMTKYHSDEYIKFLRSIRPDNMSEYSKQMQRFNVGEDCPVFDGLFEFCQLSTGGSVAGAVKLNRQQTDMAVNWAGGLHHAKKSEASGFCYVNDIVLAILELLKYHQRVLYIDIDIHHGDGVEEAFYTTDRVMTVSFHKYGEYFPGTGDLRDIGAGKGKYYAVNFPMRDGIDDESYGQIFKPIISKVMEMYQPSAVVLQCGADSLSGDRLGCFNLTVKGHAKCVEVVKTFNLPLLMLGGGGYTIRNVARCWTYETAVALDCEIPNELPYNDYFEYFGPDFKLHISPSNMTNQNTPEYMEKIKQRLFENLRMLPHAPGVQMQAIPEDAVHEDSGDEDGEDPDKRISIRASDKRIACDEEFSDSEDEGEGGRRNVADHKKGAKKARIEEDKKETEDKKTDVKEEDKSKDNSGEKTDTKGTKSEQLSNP

Key:
Histone deacetylase 1 = Histone deacetylase 1 (Homo sapiens, UniProt Q13547)
Histone deacetylase 3 = Histone deacetylase 3 (Homo sapiens, UniProt O15379)
Histone deacetylase 2 = Histone deacetylase 2 (Homo sapiens, UniProt Q92769)

Row | SMILES | IC50 (Histone deacetylase 1) [µM] | IC50 (Histone deacetylase 3) [µM] | IC50 (Histone deacetylase 2) [µM]
1 | Nc1ccccc1NC(=O)c1ccc(NC(=O)CCN2C(=O)C3(OCCCO3)c3cc(Cl)ccc32)cc1 | 0.032 | 0.311 | 0.256
2 | Nc1ccc(-c2cccs2)cc1NC(=O)c1ccc(CNC(=O)CN2C(=O)C3(OCCCO3)c3cc(Cl)ccc32)cc1 | 0.023 | 152 | 0.179
3 | Nc1ccccc1NC(=O)c1ccc(CNC(=O)CN2C(=O)C3(OCCCO3)c3cc(Cl)ccc32)cc1 | 0.137 | 0.096 | 0.223
4 | Nc1ccccc1NC(=O)c1ccc(NC(=O)CCN2C(=O)C3(OCCCO3)c3cc(Br)ccc32)cc1 | 0.012 | 0.019 | 0.026
5 | Nc1ccccc1NC(=O)c1ccc(NC(=O)CN2C(=O)C3(OCCO3)c3cc(Br)ccc32)cc1 | 0.046 | – | 0.128
